Legend:
[1] = Reduction potential of organic acceptor compound by cyclic voltammetry; format: physicochemical; settings: for Redox potential: organic acceptor
[2] = Solubility of organic acceptor compound in tetrahydrofuran (solvent of coating solution); format: physicochemical; settings: for Solubility/THF [% by weight]: organic acceptor

## N#CN=C1c2cc([N+](=O)[O-])cc([N+](=O)[O-])c2-c2c1cc([N+](=O)[O-])cc2[N+](=O)[O-]
[1]; Table 4
  Redox potential: −0.37
[1]; Table 6
  Redox potential: −0.37
[1]; to reference electrode (Ag+/Ag), cyclic voltammetry in dichloromethane
  Reduction Potential: −0.37 V
[2]; THF
  Solubility: 3 % by weight
[2]; Table 4
  Solubility/THF [% by weight]: 3 % by weight
[2]; Table 6
  Solubility/THF [% by weight]: 3 % by weight
